## Apparent affinities of Ab-91 variants for a coronavirus HR2 peptide

Data: MIT Lincoln Laboratory AlphaSeq set, Engelhart et al. 2022, doi:10.1038/s41597-022-01779-4, as distributed in FLAb.

Target peptide (SARS-CoV-2 spike, HR2 region): PDVDLGDISGINAS

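The parent was found by panning a naive human phage display library on the peptide. Variants in AAYL51 differ from the parent at up to three CDR positions; double and triple changes were sampled at random. AlphaSeq pools MATa yeast showing the antibodies with MATalpha yeast showing the peptide. Pairs that bind mate more often; barcode pairs of the diploids are counted by sequencing. Read counts were normalised to the haploid input and turned into Kd by a linear fit to BCL2-family pairs of known affinity, for each replicate. Mating was done three times.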

Ab-91 is the parent antibody, in scFv form: VL, then a 15-residue (Gly4Ser)3 linker, then VH. The light chain is unchanged in all variants.
VL: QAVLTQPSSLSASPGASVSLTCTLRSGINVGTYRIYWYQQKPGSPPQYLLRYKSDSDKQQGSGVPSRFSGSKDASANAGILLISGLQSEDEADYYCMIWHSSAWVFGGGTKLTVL
VH: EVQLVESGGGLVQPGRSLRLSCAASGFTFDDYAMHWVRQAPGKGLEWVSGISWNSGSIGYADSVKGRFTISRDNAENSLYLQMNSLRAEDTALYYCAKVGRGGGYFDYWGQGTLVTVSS

Each variant is given by its three heavy chain CDRs, as the data file delimits them; those of the parent are GFTFDDYAMH, GISWNSGSIGYADSVK, VGRGGGYFDY.
The read-out is the apparent dissociation constant on a log10 scale (nM): the lower, the stronger.
The mean shown is taken over the replicates in which the pair was detected.
"no signal" marks a missing value. The strain was present, yet no cells mated with the target were sequenced in any replicate, which points to weak or no binding.
Parent in this assay: reference entry 1.86, copy in this library 0.88.
As a blank, each scFv also met three strains without target: over library AAYL51, 21% of these pairings were detected, typically at 4.54 and seldom below 3.26.

CDR-H1,CDR-H2,CDR-H3,mean log10 Kd (nM),seen in
GFTFDDYAMH,FISWNSGSIGQANSVK,VGRGGGYFDY,3.75,1 of 3
GWTFDDYAMH,GISWNSGSIGYADSVQ,VGRGGGYFQY,3.92,1 of 3
GFTFQDYAMH,GISWNSGWIGYADSVK,VGRGGRYFDY,no signal,0 of 3
NFTFDDYAMH,GISWNSGSIGYADSVV,VGRGGGYSDY,5.12,1 of 3
GFTFDDYAMH,GISVNNVSIGYADSVK,VGRGGGYFDY,no signal,0 of 3
GFTFDDYAWH,GISANSGSIGYADSVK,VGDGGGYFDY,no signal,0 of 3
GFTFDDYAMP,GISWNSGIIGKADSVK,VGRGGGYFDY,4.67,2 of 3
GLCFDDYAMH,GISWNSGSIGYWDSVK,VGRGGGYFDY,no signal,0 of 3
GFTFDDYAMH,GISQNSGSIGYADSVK,VGRGGPYFDL,no signal,0 of 3
GFTIADYAMH,GISWNSGSIGYAWSVK,VGRGGGYFDY,no signal,0 of 3
GFTFDDYAMH,GISWNSGSIEYADHVK,VGRGGGYFDG,no signal,0 of 3
GFTFDDYAMH,GISVNSSLIGYADSVK,VGRGGGYFDY,4.22,3 of 3
GFIFDDYAMH,GISWNSGSIVYADSVK,VGRGGGYFDY,no signal,0 of 3
GFTSDDYAMH,GISWNSGSIGYADSTK,VGRGGGYKDY,3.96,1 of 3
GFTFDDYAMH,RISWNSGSITYADSVK,VGRGTGYFDY,5.67,2 of 3
GFTFDDWAMH,GWSWNSGSIGYADSVK,VGRGGGYFDY,4.76,1 of 3
GFTFDDYAMH,GISWNSGSIGYADYVF,VGRGWGYFDY,4.39,1 of 3
GFTFDDYAMC,GISWNSGVIGYADSVK,VGRGGGYFVY,3.35,1 of 3
GCTNDDYAMH,GISWNSGSIGYADSVK,VGRGGGYFQY,no signal,0 of 3
GFTFDDYAMF,GISWNSGSIGYADEVK,VGREGGYFDY,4.21,2 of 3
GFAFDDYRMH,GASWNSGSIGYADSVK,VGRGGGYFDY,4.08,2 of 3
GVTFDDYAMH,GISWNSLSIGYADSVK,VGRGGGEFDY,no signal,0 of 3
GFTFDDYAMH,GIEWNSGSIGYADSVK,VGRGGGCFDY,4.50,2 of 3
GFTFDDYAMH,GISWNSGFIGYADSVK,MMRGGGYFDY,no signal,0 of 3
GFTFDDYAMH,NISWNSGSIGYADPVK,VGRGGGYFDY,no signal,0 of 3
GFTFDDYALH,GISWNSGSITYVDSVK,VGRGGGYFDY,4.82,2 of 3
GFTFDDYKMH,GISWNSGSIGYADSYK,VGRGGGPFDY,no signal,0 of 3
GFTFDSYAMH,GISWNSGSMGYADSVK,VGRGGGYRDY,5.38,1 of 3
GFTFDDHAMH,GISWNSGSIGYADHVK,VGRGGGYNDY,no signal,0 of 3
GFTLDDYAMH,GISWNSGSIHYADSVK,VGEGGGYFDY,4.54,1 of 3
FFTFDCYAMH,GISWNSGSIGYADSVK,VGRGRGYFDY,5.81,2 of 3
GFTFWDYACH,GILWNSGSIGYADSVK,VGRGGGYFDY,no signal,0 of 3
GFTFDDYAMH,GMSWNSGSIGYADSVK,VGRGGGYTDY,4.90,3 of 3
GFTFDDYAMH,GVSWNSGSIGYADSVK,TGRGGGFFDY,1.20,3 of 3
GFTLDDYVMH,GDSWNSGSIGYADSVK,VGRGGGYFDY,4.00,1 of 3
GFTFDDYAMH,GISWNSGSIGYADKVK,VGRGELYFDY,no signal,0 of 3
GFYFVDYAMH,GISWNSGSIGYADSVK,VGRGGGYCDY,3.68,3 of 3
GFTFDDYAMH,GISWNSGSPESADSVK,VGRGGGYFDY,no signal,0 of 3
GFTFDDYAMH,GISWNSGSIGYADSTV,LGRGGGYFDY,5.43,3 of 3
GFTFDDPAAH,GISWNSGSIGYAQSVK,VGRGGGYFDY,5.58,3 of 3
GFTFDDYAMH,GISWNSGSKGYADAVK,VGEGGGYFDY,1.69,3 of 3
GFIFDDYAMH,GISWNSGSIGYADSVK,VGRGGDYFDY,5.83,2 of 3
GNTFDDYAFH,GISWNSGSIGYADSVK,VGRGGGPFDY,5.14,1 of 3
GFTFDDYAMH,GISWHSGSIGYADSVK,SGRGGGYFDA,5.62,3 of 3
PFTFDDGAMH,GISWNSGSIGYAGSVK,VGRGGGYFDY,4.16,1 of 3
GFTFDDYSMH,GISWNSGSIPYADSVK,VGRGYGYFDY,no signal,0 of 3
GWTFDDTAMH,GIQWNSGSIGYADSVK,VGRGGGYFDY,4.20,1 of 3
KFTFYDYAMH,GISWNSGSIGYADSVK,TGRGGGYFDY,5.23,1 of 3
GFTFDDYAMH,GISKNSGSIGYQDSVK,AGRGGGYFDY,3.94,3 of 3
GFTFDDYAMH,GISWNSMSIGYADIVK,VGRFGGYFDY,no signal,0 of 3
SFTFDDYAMH,GISWWSGNIGYADSVK,VGRGGGYFDY,5.15,2 of 3
GFTFDDYAMH,NISWNSGSMGYADSVK,VGRRGGYFDY,4.68,1 of 3
GFTFDDYAMH,GISWNSGSIGYAYSVK,VGPGGGYNDY,no signal,0 of 3
GNTFDDYAMH,GISWDSGLIGYADSVK,VGRGGGYFDY,no signal,0 of 3
GFTFDKYWMH,GISWNSGWIGYADSVK,VGRGGGYFDY,no signal,0 of 3
GRTFDDYAMH,GIAWNSGSIGYTDSVK,VGRGGGYFDY,2.71,3 of 3
GFTFDDYAMH,GISWNSGSIGEADSVK,VGRTCGYFDY,5.53,2 of 3
GFTFDDYHMH,GISWNHGSIGYADSVK,VGRGAGYFDY,3.26,1 of 3
GFTFDDEAMH,GISWNSGSIGYADSVK,VGRGGGYGDM,5.00,1 of 3
GFTFDAYAMH,GISWLSGSIGYADSVK,VGNGGGYFDY,4.10,1 of 3
GFTFDDYAMH,GISGNRGSIGYADSPK,VGRGGGYFDY,2.85,1 of 3
GFTSDDYAMH,GIQWNSGSIGYADSVK,VGNGGGYFDY,5.85,3 of 3
GFTFDDMAMH,GISWNRGSIGYADSVK,VGRCGGYFDY,4.99,2 of 3
GFTFDDYAMH,GISWNGMSIQYADSVK,VGRGGGYFDY,no signal,0 of 3
GFTFDDYAMH,GISWNPGSMGYADSVK,VVRGGGYFDY,no signal,0 of 3
GFTFDDYAMH,AIGWNSGSIGYADSPK,VGRGGGYFDY,4.15,2 of 3
GFTFDDYAMH,GISWHSGSIGKADSVK,KGRGGGYFDY,4.00,1 of 3
GFRFHDYAMH,GISLNSGSIGYADSVK,VGRGGGYFDY,1.64,3 of 3
GFTIDDYAMH,GIVWCSGSIGYADSVK,VGRGGGYFDY,5.03,1 of 3
GFTFDDYAMH,GSSWNSGSIGYADSVC,VGRGGGYFDY,2.89,3 of 3
TSVFDDYAMH,GISWNSGSIGYADSVK,VGRGGGYFDY,5.43,2 of 3
GFTFDDYAMH,GISWNSGSCGYADSVK,WGRGGGYGDY,3.19,3 of 3
GFTFDDLAMH,GISWNSGSIAYADRVK,VGRGGGYFDY,no signal,0 of 3
GNTFDDYAMH,GISWNLGSIGRADSVK,VGRGGGYFDY,3.55,1 of 3
GFTFDDYAMH,GISWNSHSIGYADSVK,VGRGGGQFDY,6.50,2 of 3
GFQFDDYAMH,GISWNSGSIWYADSVK,VGEGGGYFDY,4.48,1 of 3
GFTFDDYAMH,GISWNSGSIYYADSVK,VGAGGGYFDY,no signal,0 of 3

Extract of 8 entries:

CDR-H1	CDR-H2	CDR-H3	mean log10 Kd (nM)	seen in
GLCFDDYAMH	GISWNSGSIGYWDSVK	VGRGGGYFDY	no signal	0 of 3
GFTFDDYAMH	GISWNSGSIGYAYSVK	VGPGGGYNDY	no signal	0 of 3
GFIFDDYAMH	GISWNSGSIGYADSVK	VGRGGDYFDY	5.83	2 of 3
GFIFDDYAMH	GISWNSGSIVYADSVK	VGRGGGYFDY	no signal	0 of 3
GFTFDDHAMH	GISWNSGSIGYADHVK	VGRGGGYNDY	no signal	0 of 3
GFTFDSYAMH	GISWNSGSMGYADSVK	VGRGGGYRDY	5.38	1 of 3
GFTFDDYAMH	GISWNSGSIGYADKVK	VGRGELYFDY	no signal	0 of 3
GFTFDDYAMH	NISWNSGSIGYADPVK	VGRGGGYFDY	no signal	0 of 3